Values quoted from earlier work, collected in publication PMC13010972 (Chemical communications (Cambridge, England), 2026).

Test system: polymyxin-resistant S. enterica strain EG9492
Conditions: cited from earlier work

**Q.** For Nc1nc2ccc(OC(F)(F)F)cc2s1 [R-1, riluzole], which “re-sensitization of polymyxin-resistant strain to polymyxins” value is on record?
**A.** Its value is “re-sensitizes a polymyxin-resistant strain to polymyxins”.
